# Results as given in ChEMBL document CHEMBL1146884, “Effect of lysine at C-terminus of the Dmt-Tic opioid pharmacophore” (J Med Chem, 2006).
# By UniProt entry, the sequences of proteins in these tests, tags left out.
# UniProt P32300, whole entry: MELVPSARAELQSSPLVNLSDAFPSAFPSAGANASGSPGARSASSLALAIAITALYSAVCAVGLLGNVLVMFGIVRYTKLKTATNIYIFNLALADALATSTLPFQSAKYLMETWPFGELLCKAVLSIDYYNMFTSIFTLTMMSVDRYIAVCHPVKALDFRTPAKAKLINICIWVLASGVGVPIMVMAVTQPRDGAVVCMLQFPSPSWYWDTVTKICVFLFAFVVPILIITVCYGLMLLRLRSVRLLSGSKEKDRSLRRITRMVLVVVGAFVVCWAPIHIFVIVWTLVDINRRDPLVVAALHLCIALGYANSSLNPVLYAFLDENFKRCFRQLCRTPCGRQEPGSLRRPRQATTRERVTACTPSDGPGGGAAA
# Molecular target: Delta-type opioid receptor (Mus musculus, UniProt P32300)
# Assay: Agonist activity at delta opioid receptor assessed as inhibition of electrically-evoked contraction of mouse vas deferens
# Assay type: functional, tissue-based
compound,measurement,value
CC(C)[C@H](NC(=O)[C@H](CC(=O)O)NC(=O)[C@H](Cc1ccccc1)NC(=O)[C@@H](C)NC(=O)[C@@H](N)Cc1ccc(O)cc1)C(=O)N[C@H](C(=O)NCC(N)=O)C(C)C [DELTORPHIN C],IC50,371 pM
